Values quoted from earlier work, collected in US8414660B2, “Haloferax volcanii laccase and variants and fragments thereof” (University of Florida Research Foundation, Inc., priority 2009, dated 2013).
Where two headings read alike, the source gives them in different places.

How the values were obtained:
[1] = comparator laccase-like enzymes, literature, cited from earlier work
[2] = comparator laccase-like enzymes, literature, cited from earlier work; remark: listed apart in the source
[3] = 5 h at 90° C., literature; cited from earlier work

McoA [reference compound]
kcat, SGZ [1]: 0.48 s⁻¹
Km ([1]; read-out: Km, SGZ): 38 µM
kcat, ABTS [2]: 2.1 s⁻¹
Km ([2]; read-out: Km, ABTS): 128 µM
Activity after incubation at high temperature [3]: ability to oxidize metals
